Values of other authors as cited in article PMC10021052, “Novel multivalent S100A8 inhibitory peptides attenuate tumor progression and metastasis by inhibiting the TLR4-dependent pathway” (Cancer Gene Therapy, 2023).
Entries after “also recorded” stand apart in the source; their conditions may differ.

Test system: tumor-bearing mice
Design: method as in 2 sources, one per row (each row's own in cited_ref): ref [8] = [8]; PMID 26165843; doi:10.1038/onc.2015.211; 8. Deguchi A Tomita T Ohto U Takemura K Kitao A Akashi-Takamura S Eritoran inhibits S100A8-mediated TLR4/MD-2 activation and tumor growth by changing the immune microenvironment Oncogene. 2016 35 1445 ||| ref [4], [8] = [4]; PMID 17128264; doi:10.1038/ncb1507; 4. Hiratsuka S Watanabe A Aburatani H Maru Y Tumour-mediated upregulation of chemoattractants and recruitment of myeloid cells predetermines lung metastasis Nat Cell Biol 2006 8 1369 75 10.1038/ncb150 || [8]; PMID 26165843; doi:10.1038/onc.2015.211; 8. Deguchi A Tomita T Ohto U Takemura K Kitao A Akashi-Takamura S Eritoran inhibits S100A8-mediated TLR4/MD-2 activation and tumor growth by changing the immune microenvironment Oncogene. 2016 35 1445
Conditions: ref [8]; cited from earlier work

CCCCCC/C=C\CCCCCCCCCC(=O)N[C@H]1[C@H](OC[C@H]2O[C@H](OP(=O)(O)O)[C@H](NC(=O)CC(=O)CCCCCCCCCCC)[C@@H](OCCCCCCCCCC)[C@@H]2O)O[C@H](COC)[C@@H](OP(=O)(O)O)[C@@H]1OCC[C@@H](CCCCCCC)OC [Eritoran]
tumor progression in tumor-bearing mice, Eritoran: inhibited tumor growth through immunomodulation and vascular normalization; also recorded: inhibited S100A8-mediated cell migration and tumor progression in tumor-bearing mice
